# Data reported in ChEMBL document CHEMBL1148359, “Design, synthesis, and biological evaluation of 2,4-diamino-5-methyl-6-substituted-pyrrolo[2,3-d]pyrimidines as dihydrofolate reductase inhibitors” (J Med Chem, 2004).
# Assays:
# Dihydrofolate reductase [1] = biological target: T1, Dihydrofolate reductase (Mycobacterium avium, UniProt O30463); assay: Inhibitory concentration against Dihydrofolate reductase from Mycobacterium avium (Mycobacterium avium)
# T1 sequence (O30463 whole entry): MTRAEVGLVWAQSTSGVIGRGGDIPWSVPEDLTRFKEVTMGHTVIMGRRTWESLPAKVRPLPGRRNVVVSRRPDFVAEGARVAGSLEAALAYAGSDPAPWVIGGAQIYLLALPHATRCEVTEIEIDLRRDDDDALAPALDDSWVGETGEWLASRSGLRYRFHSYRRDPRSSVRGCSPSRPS
# Dihydrofolate reductase [2] = biological target: T2, Dihydrofolate reductase (Pneumocystis carinii, UniProt P16184); assay: Inhibition of Dihydrofolate reductase from Pneumocystis carinii (Pneumocystis carinii)
# T2 sequence (P16184 whole entry): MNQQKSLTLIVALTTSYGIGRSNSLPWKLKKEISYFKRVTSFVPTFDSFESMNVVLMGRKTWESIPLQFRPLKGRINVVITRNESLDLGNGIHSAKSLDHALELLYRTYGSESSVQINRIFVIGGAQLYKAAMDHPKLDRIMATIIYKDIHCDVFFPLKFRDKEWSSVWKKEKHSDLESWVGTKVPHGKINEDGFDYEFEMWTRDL
Structure (SMILES),IC50 (Dihydrofolate reductase [1]) [µM],IC50 (Dihydrofolate reductase [2]) [µM]
COc1ccc(OC)c(Sc2[nH]c3nc(N)nc(N)c3c2C)c1,0.1,14.6
Cc1c(Sc2cccc(Cl)c2)[nH]c2nc(N)nc(N)c12,,42.9
